Measured values from article PMC11006857, “Structure-guided functional suppression of AML-associated DNMT3A hotspot mutations” (Nature Communications, 2024).

Target: DNMT3A MTase domain ([…]), WT (human)
Test: SEC; Superdex 200 Increase 10/300 GL, 100 µL of 0.5 mg/mL protein, 20 mM Hepes pH 7.2, 250 mM NaCl, 5% glycerol, 5 mM DTT; homo-oligomeric DNMT3A MTase compared with the DNMT3A MTase-DNMT3L complex
Settings: both partners purified

binding result: binds
B1: DNMT3L C-terminal domain (residues 178-386) (domain or fragment, UniProt Q9UJW3 178-386, looked up)
chain: MFETVPVWRRQPVRVLSLFEDIKKELTSLGFLESGSDPGQLKHVVDVTDTVRKDVEEWGPFDLVYGATPPLGHTCDRPPSWYLFQFHRLLQYARPKPGSPRPFFWMFVDNLVLNKEDLDVASRFLEMEPVTIPDVHGGSLQNAVRVWSNIPAIRSRHWALVSEEELSLLAQNKQSSKLAAKWPTKLVKNCFLPLREYFKYFSTELTSSL
notes: DNMT3L C-terminal domain, residues 178-386; Run on the column as a purified complex with the DNMT3A MTase domain; source: purified
